How the values were obtained:
[1] = system: Luciferase gene under the control of the ARE-element of the gene AKR1C2 (KeratinoSens cell line); experiment: KeratinoSens assay for skin sensitization: luciferase gene induction
[2] = system: KeratinoSens cells; experiment: KeratinoSens assay: cytotoxicity / cellular viability; settings: 48 h

## (2E,1′R*,2′S*,6′S*)-2-Methyl-1-(1′,2′,6′-trimethylcyclohex-3′-en-1′-yl)but-2-en-1-one [Example 6]
[1]; KeratinoSens, 48 h, n.i. = no induction above threshold of 1.5
  Concentration for 1.5-fold gene induction (EC 1.5 in μM): 48.8 µM
[1]; KeratinoSens, 48 h incubation, 0.98 to 2000 μM, vs DMSO controls
  Imax (fold maximal gene induction): 1.64 fold
[1]; at 125 μM only
  marginal gene induction: 1.67 fold
[2]
  Concentration for 50% Cytotoxicity: 89.3 µM

Source: patent US10570080B2, “Perfume ketones” (Givaudan, S.A., priority 2015, dated 2020)
